According to US7863408B2, “Body fluid compatible and biocompatible resin” (Asahi Kasei Kabushiki Kaisha, priority 2002, dated 2011):
Like-named read-outs stand apart in the source and are kept apart here.

Key:
[1] = Solubility in physiological saline; format: physicochemical; details: for dissolution ratio in terms of paclitaxel / dissolution ratio in terms of dexamethasone: physiological saline, 10 mg compound in 0.1 ml
[2] = Example 148; human plasma 37°C
[3] = Example 148; mouse plasma 37°C

Substance | dissolution of 10 mg compound in 0.1 ml of physiological saline ([1]; Example 145) | dissolution ratio in terms of paclitaxel ([1]; Example 145) [mg/mL] | dissolution of 10 mg compound in 0.1 ml of physiological saline ([1]; Example 162) | dissolution ratio in terms of dexamethasone ([1]; Example 162) [mg/mL] | release of paclitaxel, compared to compound (197) [2] | release of paclitaxel, compared to compound (197) [3]
carboxymethylated polyether-2′-Gly-Phe-paclitaxel [(189)] | completely dissolved | 4.0 | – | – | – | –
carboxymethylated polyether-21-Ala-dexamethasone [Compound (209)] | – | – | completely dissolved | 3.5 | – | –
carboxymethylated polyether-2′-Leu-paclitaxel [(181)] | completely dissolved | 2.0 | – | – | – | –
carboxymethylated polyether-7-Gly-Gly-Phe-Gly-paclitaxel [(200)] | completely dissolved | 5.0 | – | – | moderate and sustained | moderate and sustained
carboxymethylated polyether-21-Ile-dexamethasone [(215)] | – | – | completely dissolved | 3.0 | – | –
carboxymethylated polyether-2′-Gly-paclitaxel [Compound (177)] | completely dissolved | 3.9 | – | – | – | –
carboxymethylated polyether-2′-Gly-Gly-Phe-Gly-paclitaxel [Compound (197)] | completely dissolved | 4.5 | – | – | – | –
carboxymethylated polyether-21-Leu-dexamethasone [(212)] | – | – | completely dissolved | 4.0 | – | –
